# Data published in ChEMBL document CHEMBL5030561, “Discovery of novel aminosaccharide-based sulfonamide derivatives as potential carbonic anhydrase II inhibitors” (Bioorg Med Chem Lett, 2021).
# Columns and labels:
# Homo sapiens [1] = species: Homo sapiens; test: Selectivity ratio of IC50 for inhibition of recombinant human CA1 to IC50 for inhibition of recombinant human CA2 using 4-nitrophenylacetate as substrate by esterase assay
# Homo sapiens [2] = species: Homo sapiens; test: Selectivity ratio of IC50 for inhibition of recombinant human CA9 to IC50 for inhibition of recombinant CA2 using 4-nitrophenylacetate as substrate by esterase assay
structure (smiles),measurement,setting,value
CC(=O)Nc1nnc(S(N)(=O)=O)s1 [ACETAZOLAMIDE],Selectivity ratio,Homo sapiens [1],25
same,Selectivity ratio,Homo sapiens [2],2.5
